scFv variants of Ab-14 (heavy chain) against a SARS-CoV-2 spike peptide

Data: MIT Lincoln Laboratory AlphaSeq set, Li et al. 2023, doi:10.1038/s41467-023-39022-2, as distributed in FLAb.

Target: peptide PDVDLGDISGINAS, taken from heptad repeat 2 (HR2) of SARS-CoV-2 spike.

Ab-14 is the parent antibody, in scFv form: VH, then three GGGGS repeats, then VL. The light chain is unchanged in all variants.
VH: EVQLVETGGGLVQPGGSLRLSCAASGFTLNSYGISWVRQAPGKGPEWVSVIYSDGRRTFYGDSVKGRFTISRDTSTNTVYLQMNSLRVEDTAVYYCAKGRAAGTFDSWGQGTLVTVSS
VL: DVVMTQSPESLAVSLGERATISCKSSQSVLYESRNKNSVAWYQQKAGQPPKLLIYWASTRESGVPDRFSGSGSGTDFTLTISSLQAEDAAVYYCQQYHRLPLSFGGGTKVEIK

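Phage display of a naive human antibody library on the peptide gave the parent. These sequences belong to a second round, designed from the earlier measurements on random variants of the parent. Group labels follow the data file (Ctrl: baseline library sampled from a position-specific scoring matrix, with some repeated check sequences; Rand: our label for a block that the file lists under HC and that is probably the random mutants of the ten best first-round binders; GP: Gaussian process model; GPLM: also part of the Gaussian process libraries; HC: hill climbing; Gen: genetic algorithm; Gibbs: Gibbs sampling; a sequence that several methods proposed may carry one label only). Affinity was read by AlphaSeq, a pooled yeast mating assay with surface-displayed partners. Pairs that bind mate more often; barcode pairs of the diploids are counted by sequencing. Each replicate has its own calibration line, from reference interactions of the BCL2 family. The assay was run in six technical replicates.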

Changes read parent residue, position, new residue, counted from the first residue of the VH shown.
This list holds designs with at most six substitutions.
The Kd shown is the geometric mean over detected replicates; a lower Kd is a better binder.
"nd" marks a missing value. The strain was present, yet no cells mated with the target were sequenced in any replicate, which points to weak or no binding.
Entries are sorted by rising average, undetected variants last.
Of ten entries with the parent sequence, four were seen in most replicates (averages 2.2 nM to 240 nM), three in one and three in none, so single entries are noisy.

The variant T28S S31E A101T F105L [GP_Gen] gave 630 pM (6 of 6 replicates). The variant S31E F59A G61Q [GP_HC] showed 690 pM (6 of 6 replicates). For T28E G61A S63D A101N [GP_Gen], the assay gave 950 pM (6 of 6 replicates). With G26M T28D F59A A101E [GP_Gibbs] the result was 1.0 nM (6 of 6 replicates). With T28E A101E S107T [GPLM_Gen] the result was 1.5 nM (6 of 6 replicates). The variant T28S S31Q G61I R100Q [GPLM_Gen] gave 2.1 nM (6 of 6 replicates).

The variant T28E G61S R100Q S107T [GPLM_Gen] showed 2.4 nM (6 of 6 replicates). The variant T28S S31D S63K A101T [GPLM_Gen] gave 2.7 nM (6 of 6 replicates). The variant T28S N30K S53A R100K [GP_Gen] showed 2.8 nM (6 of 6 replicates). For T28S S53A G61V [GPLM_Gen], the assay gave 3.2 nM (6 of 6 replicates). With S31E R100E [Ctrl] the result was 3.2 nM (6 of 6 replicates). The variant T28W S31E R100N [GP_Gen] showed 3.9 nM (5 of 6 replicates).

With T28D G61V [Ctrl+GPLM_HC] the result was 4.3 nM (12 of 12 replicates). With T28E R100W A101V S107K [GP_Gibbs] the result was 5.2 nM (6 of 6 replicates). For T28E R56K A101E [GP_Gen], the assay gave 5.5 nM (6 of 6 replicates). The variant S31E A101M [Ctrl+GPLM_Gen] showed 5.8 nM (10 of 12 replicates). The variant T28H R56K A101T [GPLM_Gen] gave 6.4 nM (5 of 6 replicates). For T28S G61A S63M R100E S107T [GP_Gibbs], the assay gave 12 nM (4 of 6 replicates).

For F59A G61D R100Q [GP_HC], the assay gave 14 nM (5 of 6 replicates). For T28C S31D F59A G61I [GP_HC], the assay gave 16 nM (6 of 6 replicates). The variant N30D G61D [GP_HC] showed 18 nM (5 of 6 replicates). For S53A G99N [Ctrl], the assay gave 31 nM (6 of 6 replicates). The variant N30D R100E S107K [GP_Gibbs] showed 40 nM (5 of 6 replicates). The variant S53A S63D R100Q D106K [GPLM_HC] gave 46 nM (6 of 6 replicates).

The variant D106W S107L [Ctrl] gave 49 nM (1 of 6 replicates). The variant G61A R100N T104I S107T [GP_HC] showed 91 nM (1 of 6 replicates). For G61S D62E S63K R100D [Ctrl], the assay gave 94 nM (3 of 6 replicates). The variant R56M G61S S63Q R100Q A101T [GP_Gibbs] gave 130 nM (2 of 6 replicates). The variant T28S R100Q A101T S107L [GPLM_Gen] gave 150 nM (2 of 6 replicates). For G61S R100K A102V [GP_HC], the assay gave 200 nM (2 of 6 replicates).

With F27T F59Y G61T R100Q [Ctrl] the result was 300 nM (1 of 6 replicates). For S31D I34D F59Q G61I [Rand], the assay gave 350 nM (1 of 6 replicates). For A101K T104K D106K S107W [Ctrl], the assay gave 1.6 µM (1 of 6 replicates). For T28S S63N R100K A101I [GP_Gen], the assay gave 3.4 µM (1 of 6 replicates). With Y60M [Ctrl] the result was nd (0 of 6 replicates). For T28S S31D G103D [GP_HC], the assay gave nd (0 of 6 replicates).

The variant G33A G61S K65R [Ctrl] gave nd (0 of 6 replicates). The variant G61A R100N [GPLM_Gen] gave nd (0 of 6 replicates). For T28N S63D G99R G103L [Ctrl], the assay gave nd (0 of 6 replicates). With L29Y S63K S107H [Ctrl] the result was nd (0 of 6 replicates). For S31E G61I A101D [GP_HC], the assay gave nd (0 of 6 replicates). With T28D R100Q A101N [GP_Gen] the result was nd (0 of 6 replicates).

For F27E G61D S63D G103H D106S [Ctrl], the assay gave nd (0 of 6 replicates). The variant N30D V64D T104Y F105A D106L [Rand] showed nd (0 of 6 replicates).

7 of these entries, quoted again:

G33A G61S K65R [Ctrl]: nd (0 of 6 replicates).
T28D R100Q A101N [GP_Gen]: nd (0 of 6 replicates).
T28S S53A G61V [GPLM_Gen]: 3.2 nM (6 of 6 replicates).
T28W S31E R100N [GP_Gen]: 3.9 nM (5 of 6 replicates).
T28E G61A S63D A101N [GP_Gen]: 950 pM (6 of 6 replicates).
Y60M [Ctrl]: nd (0 of 6 replicates).
L29Y S63K S107H [Ctrl]: nd (0 of 6 replicates).

The authors averaged sequences with at least three values out of six and counted those with two or fewer as poor binders.
Empty control strains, which show no peptide, gave a signal in 1% of pairings with all heavy chain designs; the median was 120 nM and 95% of these signals were weaker than 7.0 nM. No background was subtracted.
Where one sequence has several entries in the source, the replicates are pooled.
Values of this round are not directly comparable with the first-round values of the same sequences.